# Source: patent US9814729B2, “Nerve agent antidotes” (dated 2017)
# Legend:
# [1] = test system: rat model of severe SE induced by high-dose lithium and pilocarpine; assay: Toxicity score (locomotion, righting reflex, consciousness) in the Tetz model; settings: diazepam 20 mg/kg
# [2] = test system: Tetz model of SE in Wistar rats; assay: Spontaneous recurrent seizures 6-8 weeks after treatment (epileptogenesis), Tetz model; settings: diazepam 5 mg/kg
# [3] = test system: Tetz model of SE in Wistar rats; assay: Tetz rat model of severe SE induced by high-dose lithium and pilocarpine (mortality, seizures, spikes, Hjorth function, EEG power); settings: for Hjorth 1 hr: first 1 hr after treatment; for Hjorth 1 hr / Hjorth 6 hr / Seizures/day / Spikes/day: mean; for Hjorth 6 hr: first 6 hrs after treatment; for Seizures/day: number of seizures in first 24 hrs; for mortality: controls 52%; for stopping of SE by monotherapy: valproate 30 mg/kg, brivaracetam 10 mg/kg; for Hjorth function (seizure severity) over first 6 hrs after treatment vs controls not receiving anticonvulsants (FIG. 3): monotherapy: diazepam 5 mg/kg, dizocilpine 1 mg/kg
# [4] = test system: SE in Sprague-Dawley rats; assay: SE model in Sprague-Dawley rats with scopolamine, EEG power after treatment; settings: treatment 40 min. after induction of SE, mean
# [5] = diazepam 5 mg/kg after 1 hr delay
# [6] = diazepam 5 mg/kg after 2 hr delay
# [7] = ketamine 10 mg/kg, diazepam 1, 5, 10 or 20 mg/kg
smiles,measurement,setting,value
CN1C(=O)CN=C(c2ccccc2)c2cc(Cl)ccc21,"consciousness, locomotion and righting reflex",[1],induced coma
same,"consciousness, locomotion and righting reflex",[1]; listed as DZ,severely impaired locomotion and the righting reflex
same,frequency of spontaneous recurrent seizures vs controls not receiving anticonvulsants (FIG. 6),[2],did not reduce
same,Hjorth 1 hr,[3]; diazepam 1 mg/kg,1780
same,Hjorth 6 hr,[3]; diazepam 1 mg/kg,6534
same,Seizures/day,[3]; diazepam 1 mg/kg,107
same,Spikes/day,"[3]; diazepam 1 mg/kg, number of spikes in 24 hrs",5179
same,Hjorth 1 hr,[3]; [5],3588
same,Seizures/day,[3]; [5],101
same,Hjorth 1 hr,[3]; [6],2880
same,Seizures/day,[3]; [6],83
same,mortality,[3]; diazepam 5 mg/kg,7%
same,Hjorth 1 hr,[3]; diazepam 5 mg/kg,2312
same,Hjorth 6 hr,[3]; diazepam 5 mg/kg,5398
same,Spikes/day,[3]; diazepam 5 mg/kg,2508
same,Seizures/day,[3]; diazepam 5 mg/kg,115
same,Hjorth 1 hr,[3]; diazepam 10 mg/kg,3362
same,Hjorth 6 hr,[3]; diazepam 10 mg/kg,5398
same,Spikes/day,[3]; diazepam 10 mg/kg,1134
same,Seizures/day,[3]; diazepam 10 mg/kg,89
same,number of post-treatment seizures,"[3]; diazepam 20 mg/kg, N.S. vs sham-injected controls (100±7)",100±8
same,Hjorth 1 hr,[3]; diazepam 20 mg/kg,2924
same,Hjorth 6 hr,[3]; diazepam 20 mg/kg,8238
same,Spikes/day,[3]; diazepam 20 mg/kg,1077
same,Seizures/day,[3]; diazepam 20 mg/kg,100
same,Hjorth function compared to controls not receiving anticonvulsants (atropine group),"[3]; diazepam 1, 5, 10 or 20 mg/kg",did not reduce
same,seizure frequency compared to controls not receiving anticonvulsants (atropine group),"[3]; diazepam 1, 5, 10 or 20 mg/kg",did not reduce
same,mortality,[3]; diazepam 10-20 mg/kg,≤ 7%
same,stopping of seizures,[3]; diazepam even at 20 mg/kg,did not stop seizures
same,stopping of SE by monotherapy,[3]; [7],failed to stop SE
same,Hjorth function (seizure severity) over first 6 hrs after treatment vs controls not receiving anticonvulsants (FIG. 3),[3]; ketamine 10 mg/kg,did not reduce
Cc1ncc2n1-c1ccc(Cl)cc1C(c1ccccc1F)=NC2,Power integrals 1 hr after treatment,[4]; midazolam 9 mg/kg,716.7 decibel minutes
CNC1(c2ccccc2Cl)CCCCC1=O (centres unmarked),Power integrals 1 hr after treatment,[4]; ketamine 90 mg/kg,436.7 decibel minutes
same,stopping of SE by monotherapy,[3]; [7],failed to stop SE
same,Hjorth 1 hr,[3]; ketamine 10 mg/kg,3681
same,Seizures/day,[3]; ketamine 10 mg/kg,35
same,Spikes/day,"[3]; ketamine 10 mg/kg, number of spikes in 24 hrs",2166
same,Hjorth function (seizure severity) over first 6 hrs after treatment vs controls not receiving anticonvulsants (FIG. 3),[3]; ketamine 10 mg/kg,did not reduce
C[C@]12N[C@H](Cc3ccccc31)c1ccccc12,Hjorth function (seizure severity) over first 6 hrs after treatment vs controls not receiving anticonvulsants (FIG. 3),[3]; ketamine 10 mg/kg,did not reduce
CCC[C@@H]1CC(=O)N([C@@H](CC)C(N)=O)C1,stopping of SE by monotherapy,[3]; [7],failed to stop SE
CCCC(CCC)C(=O)O,Power integrals 1 hr after treatment,[4]; valproate 270 mg/kg,940.5 decibel minutes
